Laboratory results published in patent US7163957B2, “3-(Cyclopenten-1-yl)-benzyl-or 3-(cyclopenten-1-yl)-heteroarylmethyl-amine derivatives and use thereof as medicines for treating schizophrenia” (Pierre Fabre Medicament, priority 2002, dated 2007).

Tested on: catalepsy
Experiment: Cataleptigenic effects (catalepsy)
Conditions: rat, in vivo; rats, oral route

Cc1nc2n(c(=O)c1CCN1CCC(c3noc4cc(F)ccc34)CC1)CCCC2 [Risperidone, risperidone, reference compound]
ED50: 3.5 mg/kg
